Experimental findings from PubChem BioAssay AID2112 (National Center for Advancing Translational Sciences (NCATS), 2009) are described below.

Several values for one entry are separate records, joined by “and”; a condition that tells them apart may be missing. Equal entries are not always repeated. This is a selection; strong and weak results do not stand in their true shares. Activity calls are given as the source filed them. Calls come from the whole dose curve; as a rule, active = well fitted inhibition curve with a large enough effect; inconclusive = small, poorly fitted or top-dose-only effect, or effect the other way, or another doubt; inactive = no such curve, though single readings can be large or run the other way.

This test addresses Lysosomal alpha-glucosidase (Homo sapiens) (UniProt P10253). In words: qHTS Assay for Inhibitors and Activators of Human alpha-Glucosidase From Spleen Homogenate.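 Note: 0% = enzyme with vehicle and -100% = no enzyme basal signal.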 The settings on record: 4-MU-alpha-glucoside fluorescence. The source says:
NIH Chemical Genomics Center [NCGC] NIH Molecular Libraries Probe Production Centers Network [MLPCN] MLPCN Grant: R03 MH084841-01 Assay Submitter (PI): Wei Zheng NCGC Assay Overview: Alpha-glucosidase is responsible for the hydrolysis of terminal, non-reducing 1,4-linked alpha-D-glucose residues, which releases alpha-D-glucose. It is a lysosomal hydrolase that is required for the degradation of a small percentage (1-3%) of cellular glycogen in humans. Deficiency of this enzyme results in glycogen-storage disease type II (GSDII), also referred to as Pompe disease, an autosomal recessive disorder. Structurally normal glycogen is accumulated in the lysosomes and cytoplasm in affected patients, primarily in muscle tissues. Excessive glycogen storage within lysosomes may interrupt normal functioning of other organelles and leads to cellular injury. In turn, this leads to enlargement and dysfunction of the entire organ involved (eg: cardiomyopathy and muscle weakness). It has been reported that the improper folding and trafficking of alpha-glucosidase resulting from genetic mutations may account for a significant number of Pompe patients. […] We optimized this alpha-glucosidase assay in 1536-well plate format for identification of novel small molecule inhibitors or activators with structures other than the sugar analogs in order to develop new pharmacological chaperones. In particular, this assay is directed towards discovering compounds active in a more natural setting, tissue homogenate, that may have been missed by screens of the purified enzyme under more stringent conditions.
NCGC Assay Protocol Summary: This is a fluorogenic enzyme assay with 4-methylumbelliferyl-alpha-D-glucopyranoside as the substrate and human spleen homogenate containing alpha-glucosidase as the enzyme preparation. Upon hydrolysis of this fluorogenic substrate, the resulting product, 4-methylumbelliferone (which excites at 365 nm and emits at 440 nm) can be detected by a fluorescence plate reader. Data were normalized to the controls for basal activity (without enzyme) and 100% activity (with enzyme). The AC50 values were determined from concentration-response data modeled with the standard Hill equation. Assay buffer: 50 mM citric acid (titrated with potassium phosphate to pH 5.0), 0.01% Tween-20 (pH 5.0 is an optimal condition for this enzyme assay) 1536-well assay protocol for the alpha-glucosidase from human spleen homogenate: (1) Add 2 ul/well spleen homogenate (1 ug) (2) Add 23 nL compounds in DMSO solution. The final titration was 0.5 nM to 58 uM. (3) Add 2 ul of substrate (1 mM final) (4) Incubate at 37 C for 40 min (5) Add 2 ul stop solution (1M NaOH and 1M Glycine mixture, pH 10) (6) Detect the assay plate in a ViewLux plate reader (PerkinElmer) with Ex=365 nm and Em=440nm. Keywords: Alpha-glucosidase, Pompe Disease, pharmacological chaperone, chaperone therapy, high throughput screening, alpha-glucosidase inhibitor, MLSMR, MLSCN, NIH Roadmap, qHTS and NCGC

[1] abbreviates: at 79.9 µM (top of the series) unless noted.

Turning to `COP1(=S)c2c(C)nn(CCC#N)c2N=C(c2ccc(F)cc2)N1C` (stereo unspecified), under setting [1], the activity change, negative = inhibition is inactive: -8.87%. Consider `O=C(COc1ccccc1)OC1CN2CCC1CC2` (stereo unspecified), for which the activity change, negative = inhibition under setting [1] was inactive: -5.16%. The same measure, in the same setting: the figure for `CCOC(=O)c1ccc(NC(=O)C(C)(CCl)SC)cc1` (stereo unspecified) is inactive: 0.489%; for `CCC(C)N(CC(C)C)C(=S)SC(NC(C)=O)C(Cl)(Cl)Cl` (stereo unspecified) it is inactive: -1.95%. On the same count and under the same terms, the figure for `CCOC(=O)Nc1ccc([As](=O)(O)O)c(O)c1` is inactive: -6.55%. For `Cc1cc(SC(NC(=O)c2ccccc2)C(Cl)(Cl)Cl)nc(C(C)C)n1` (stereo unspecified), under setting [1], the activity change, negative = inhibition is inactive: -3.39%.

For `CCOC(=O)Nc1cccc([As](=O)(O)O)c1`, the activity change, negative = inhibition under setting [1] was inactive: 2.01%. Turning to `O=P(Nc1ccccn1)(c1cccc2ccccc12)c1cccc2ccccc12`, under setting [1], the activity change, negative = inhibition was inactive: -0.754%. On the same count and under the same terms, the figure for `Cc1cc(SC(NC=O)C(Cl)(Cl)Cl)ncn1` (stereo unspecified) is inactive: 7.99%; for `CN(N=O)C(=N)N[N+](=O)[O-]` it is inactive: -0.359%. Still for that read-out and setting: to `O=[N+]([O-])c1ccc(Nc2ccc(Oc3ccc([N+](=O)[O-])cc3[N+](=O)[O-])cc2)c([N+](=O)[O-])c1` belongs inactive: 10.8%. Still for that read-out and setting: the figure for `O=[As](O)(c1ccc(O)cc1)c1ccccc1O` is inactive: -5.14%; for `C[As](=O)(O)c1cccc(C(=O)O)c1` it is inactive: 1.74%; for `Cc1ccc(OP(=O)(Nc2ccc([N+](=O)[O-])cn2)Oc2ccc(C)cc2)cc1` it is inactive: 2.58%. Regarding `Cc1ccc2nc3c(c(C)c2c1)CC(C(Cl)Cl)S3` (stereo unspecified), the activity change, negative = inhibition under setting [1] was inactive: 1.74%. Still for that read-out and setting: to `ClCCSc1nnc(-c2cccnc2)o1` belongs inactive: 5.66%; to `CC(C)c1ccc(OP(=O)(Nc2ccccn2)Oc2ccccc2F)cc1` (stereo unspecified), inactive: -5.89%. The same measure, in the same setting: the figure for `CC(C)NC(=O)NP(=O)(Oc1ccccc1)Oc1ccccc1` is inactive: -1.46%. The same measure, in the same setting: the figure for `CCN(CC)C(=S)SC(NC=O)C(Cl)(Cl)Cl` (stereo unspecified) is inactive: 6.57%; for `O=[N+]([O-])c1cc([N+](=O)[O-])c(-c2ccn[nH]2)s1` it is inactive: 1.76%; for `Cc1c2c(nc3ccccc13)SC(C(Cl)Cl)C2` (stereo unspecified) it is inactive: -16.6%.

For `O=C(OC1CN2CCC1CC2)C12CC3CC(CC(C3)C1)C2` (stereo unspecified), the activity change, negative = inhibition under setting [1] is inactive: -4.36%. Regarding `Cc1cc(=O)[nH]c(N[N+](=O)[O-])n1`, the activity change, negative = inhibition under setting [1] was inactive: 2.72%. `COc1ccc2nc(NP(=O)(c3ccccc3)c3ccccc3)sc2c1`: the activity change, negative = inhibition under setting [1] is inactive: -8.34%. Same read-out and setting: to `COc1cc(I)ccc1[As](=O)(O)O` belongs inactive: -1.09%; to `COc1ccc(N/C(=N/P(=O)(N2CCOCC2)N2CCOCC2)N2CCOCC2)cc1`, inactive: 8.31%.

`O=C(OC1CN2CCC1CC2)c1ccc(Cl)cc1` (stereo unspecified): the activity change, negative = inhibition under setting [1] was inactive: 1.19%. On the same count and under the same terms, the figure for `CN(C(=O)Cc1ccc(Cl)c(Cl)c1)[C@@H]1CC[C@]2(CCCO2)C[C@H]1N1CCCC1` is inactive: -2.06% and inactive: 8.22%; for `O=[As](O)(O)c1cccnc1` it is inactive: -4.59%; for `COc1cc(C(=O)NCC2(N3CCOCC3)CCCCC2)cc(Cl)c1OC(C)C` it is inactive: 2.82%.

Regarding `Cc1cccc(OCC(=O)OC2CN3CCC2CC3)c1` (stereo unspecified), the activity change, negative = inhibition under setting [1] is inactive: 5.87%. As to `O=[As](O)(c1cccc(O)c1)c1cccc(O)c1`, the activity change, negative = inhibition under setting [1] is inactive: -0.212%. Same read-out and setting: the figure for `Cc1ccc(NCCc2c([N+](=O)[O-])cc([N+](=O)[O-])cc2[N+](=O)[O-])cc1` is inactive: -14.1%; for `Nc1cccc2c([As](=O)(O)O)cccc12` it is inactive: 3.35%; for `CCCOP(=S)(Nc1nc(N)cc(=O)[nH]1)OCCC` it is inactive: -0.844%. The same measure, in the same setting: the figure for `COc1cc(C2NCCC3(OCCO3)C2(C)C)cc(OC)c1OC` (stereo unspecified) is inactive: 0.541%; for `CCOP(=O)(Nc1cccc2ccccc12)OCC` it is inactive: -0.443%; for `CCOP1(=S)c2c(C)nn(CCC#N)c2N=C(c2ccccc2F)N1C` (stereo unspecified) it is inactive: -5.56%.

Take `O=P(Nc1nccs1)(Oc1ccccc1)Oc1ccccc1`: the activity change, negative = inhibition under setting [1] was inactive: 0.0744%.

For `O=P(Nc1nccs1)(c1ccccc1)c1nc2ccccc2s1` (stereo unspecified), the activity change, negative = inhibition under setting [1] was inactive: 2.41%. For the molecule `CS(=O)(=O)c1cc([N+](=O)[O-])c2no[n+]([O-])c2c1`, the activity change, negative = inhibition under setting [1] is inactive: 0.837%.

In the case of `Nc1ccccc1[As](=O)(O)c1ccccc1`, the activity change, negative = inhibition under setting [1] was inactive: 2.69%. On the same count and under the same terms, to `O=C(O)COc1ccc([As](=O)(O)O)cc1[N+](=O)[O-]` belongs inactive: -9.61%. Take `NC(=O)Nc1ccc([As](=O)(O)O)cc1`: the activity change, negative = inhibition reads like this: (at 29.1 µM (top of the series)) inactive: -4.6%; (at 79.9 µM (top of the series)) inactive: -2.32% and inactive: 8.38%. Turning to `O=[N+]([O-])CC(O)c1ccc([N+](=O)[O-])cc1` (stereo unspecified), under setting [1], the activity change, negative = inhibition is inactive: -1.47%.

As for `CCOP1(=S)c2c(C)nn(CCC#N)c2N=C(c2ccc(F)cc2)N1C` (stereo unspecified), under setting [1], the activity change, negative = inhibition is inactive: 1.89%. As for `O=[N+]([O-])c1ccc2c(c1)nnn2O`, the activity change, negative = inhibition under setting [1] was inactive: 5.42%. On the same count and under the same terms, the figure for `Cc1nn(-c2ccccc2)c2c1P(=O)(N1CCOCC1)N(C)C(c1ccccc1)=N2` (stereo unspecified) is inactive: -1.81%.

On to `CC1CCC(C(C)C)C(OP(=O)(Nc2ccccn2)c2ccccc2)C1` (stereo unspecified), for which, under setting [1], the activity change, negative = inhibition was inactive: -6.66%.

Take `CN(C)C1(CNC(=O)c2ccc(S(C)(=O)=O)cc2)CCCCC1`: the activity change, negative = inhibition under setting [1] was inactive: -5.82%.
